Earlier results as cited in patent US20090075974A1, “AGENT FOR PROPHYLAXIS AND TREATMENT OF PANCREATITIS” (UMN Pharma Inc., priority 2005, published 2009).

Sequences of proteins named here, by UniProt entry; tags and fusion partners are left off.
UniProt P28223, whole entry: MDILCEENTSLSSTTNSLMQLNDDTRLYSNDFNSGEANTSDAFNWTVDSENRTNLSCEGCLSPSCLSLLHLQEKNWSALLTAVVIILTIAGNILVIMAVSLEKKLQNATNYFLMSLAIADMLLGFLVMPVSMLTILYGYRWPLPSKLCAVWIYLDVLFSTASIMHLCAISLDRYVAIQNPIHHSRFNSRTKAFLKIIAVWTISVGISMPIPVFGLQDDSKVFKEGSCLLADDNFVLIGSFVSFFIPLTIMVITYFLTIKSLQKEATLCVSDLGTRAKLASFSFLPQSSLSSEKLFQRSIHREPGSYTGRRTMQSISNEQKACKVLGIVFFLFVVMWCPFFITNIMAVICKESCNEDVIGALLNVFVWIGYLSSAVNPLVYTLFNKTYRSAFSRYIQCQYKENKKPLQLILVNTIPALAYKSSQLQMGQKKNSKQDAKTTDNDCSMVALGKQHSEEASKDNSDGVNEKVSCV

Molecular target: 5-HT2A receptor (Homo sapiens, UniProt P28223)
Conditions: literature values, Knight et al. (2004); cited from earlier work

In the case of `O=C1NCN(c2ccccc2)C12CCN(CCCOc1ccc(F)cc1)CC2` [AMI-193], the “5-HT2A pKi ± SEM” value is given as 7.65 ± 0.08.
